Earlier results, collected in patent US5739106A, “Appetite regulating compositions” (priority 1995, dated 1998).

Biological target: T1, CCK receptor (Homo sapiens, UniProt P32239)
T1 construct: host or cells: cerebral cortex homogenates
T1 sequence (P32239 1-447): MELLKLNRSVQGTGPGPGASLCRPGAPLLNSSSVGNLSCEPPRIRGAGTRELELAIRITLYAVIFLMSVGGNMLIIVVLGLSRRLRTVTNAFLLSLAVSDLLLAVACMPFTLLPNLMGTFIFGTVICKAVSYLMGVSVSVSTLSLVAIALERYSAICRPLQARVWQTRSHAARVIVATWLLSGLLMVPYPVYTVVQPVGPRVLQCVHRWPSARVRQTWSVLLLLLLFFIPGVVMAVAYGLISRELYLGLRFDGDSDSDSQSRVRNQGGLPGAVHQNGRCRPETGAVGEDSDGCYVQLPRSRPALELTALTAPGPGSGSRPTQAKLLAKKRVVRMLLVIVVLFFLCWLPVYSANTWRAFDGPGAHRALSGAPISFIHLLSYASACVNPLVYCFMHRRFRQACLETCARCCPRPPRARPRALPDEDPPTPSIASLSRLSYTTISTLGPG
Conditions: homogenates from the cerebral cortex; cited from earlier work

CCK-4
concentration displacing CCK receptor binding relative to sulfated CCK-8: equimolar, 10-fold or 100-fold greater
